Measurements published in US8080570B2, “α2B and α2C agonists” (Allergan, Inc., priority 2008, dated 2011).

Amino acid sequences for entries named in this document (tags omitted). A change or cut given only in a name is not applied to a line headed by its entry.
UniProt P08913, whole entry, looked up: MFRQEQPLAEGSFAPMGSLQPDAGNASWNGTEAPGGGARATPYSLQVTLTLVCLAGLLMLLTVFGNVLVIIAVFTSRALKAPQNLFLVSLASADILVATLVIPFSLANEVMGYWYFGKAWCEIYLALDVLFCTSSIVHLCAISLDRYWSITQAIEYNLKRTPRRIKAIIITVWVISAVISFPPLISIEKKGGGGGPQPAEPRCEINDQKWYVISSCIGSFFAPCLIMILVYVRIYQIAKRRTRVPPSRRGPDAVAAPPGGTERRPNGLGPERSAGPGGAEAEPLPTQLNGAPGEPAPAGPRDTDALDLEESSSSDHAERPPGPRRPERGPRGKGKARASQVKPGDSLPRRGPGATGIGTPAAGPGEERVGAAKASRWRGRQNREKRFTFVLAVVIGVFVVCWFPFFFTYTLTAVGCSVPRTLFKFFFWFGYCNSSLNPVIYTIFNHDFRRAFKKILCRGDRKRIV
UniProt P18089, whole entry, looked up: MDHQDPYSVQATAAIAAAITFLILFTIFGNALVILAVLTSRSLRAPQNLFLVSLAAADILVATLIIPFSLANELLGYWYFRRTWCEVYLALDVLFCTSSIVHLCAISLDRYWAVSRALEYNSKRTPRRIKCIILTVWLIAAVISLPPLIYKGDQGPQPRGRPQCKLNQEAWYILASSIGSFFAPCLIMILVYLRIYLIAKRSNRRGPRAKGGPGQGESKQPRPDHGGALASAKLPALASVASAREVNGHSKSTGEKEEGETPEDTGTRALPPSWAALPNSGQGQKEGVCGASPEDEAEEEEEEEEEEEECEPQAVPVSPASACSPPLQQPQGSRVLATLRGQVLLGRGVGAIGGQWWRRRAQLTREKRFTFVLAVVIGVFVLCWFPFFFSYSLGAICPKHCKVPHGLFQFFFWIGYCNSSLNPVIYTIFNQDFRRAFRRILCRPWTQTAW
UniProt P18825, whole entry, looked up: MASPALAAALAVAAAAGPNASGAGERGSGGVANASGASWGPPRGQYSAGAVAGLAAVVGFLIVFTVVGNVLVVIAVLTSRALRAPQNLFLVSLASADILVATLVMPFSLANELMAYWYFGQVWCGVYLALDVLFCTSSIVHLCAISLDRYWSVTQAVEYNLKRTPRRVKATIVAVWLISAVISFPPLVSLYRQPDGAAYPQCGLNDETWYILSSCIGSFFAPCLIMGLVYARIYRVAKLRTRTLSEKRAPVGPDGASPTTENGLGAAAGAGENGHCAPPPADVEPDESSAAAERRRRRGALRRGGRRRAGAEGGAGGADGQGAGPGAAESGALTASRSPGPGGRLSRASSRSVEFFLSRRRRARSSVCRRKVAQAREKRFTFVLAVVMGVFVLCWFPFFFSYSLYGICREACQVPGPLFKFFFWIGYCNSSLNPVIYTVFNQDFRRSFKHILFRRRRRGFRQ
UniProt P35348: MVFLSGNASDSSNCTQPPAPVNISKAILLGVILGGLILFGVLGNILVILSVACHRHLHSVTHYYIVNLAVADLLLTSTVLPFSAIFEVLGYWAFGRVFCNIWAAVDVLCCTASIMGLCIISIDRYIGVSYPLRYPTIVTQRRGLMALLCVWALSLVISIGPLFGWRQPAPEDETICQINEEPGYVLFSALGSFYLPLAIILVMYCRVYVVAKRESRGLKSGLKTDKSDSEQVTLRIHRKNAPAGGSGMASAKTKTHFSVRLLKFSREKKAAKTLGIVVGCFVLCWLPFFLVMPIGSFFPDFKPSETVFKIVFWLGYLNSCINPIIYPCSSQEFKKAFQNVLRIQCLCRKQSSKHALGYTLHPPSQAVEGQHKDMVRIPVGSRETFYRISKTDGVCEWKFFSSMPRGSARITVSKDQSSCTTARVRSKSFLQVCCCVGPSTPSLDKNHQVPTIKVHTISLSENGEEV
UniProt P35368, whole entry, looked up: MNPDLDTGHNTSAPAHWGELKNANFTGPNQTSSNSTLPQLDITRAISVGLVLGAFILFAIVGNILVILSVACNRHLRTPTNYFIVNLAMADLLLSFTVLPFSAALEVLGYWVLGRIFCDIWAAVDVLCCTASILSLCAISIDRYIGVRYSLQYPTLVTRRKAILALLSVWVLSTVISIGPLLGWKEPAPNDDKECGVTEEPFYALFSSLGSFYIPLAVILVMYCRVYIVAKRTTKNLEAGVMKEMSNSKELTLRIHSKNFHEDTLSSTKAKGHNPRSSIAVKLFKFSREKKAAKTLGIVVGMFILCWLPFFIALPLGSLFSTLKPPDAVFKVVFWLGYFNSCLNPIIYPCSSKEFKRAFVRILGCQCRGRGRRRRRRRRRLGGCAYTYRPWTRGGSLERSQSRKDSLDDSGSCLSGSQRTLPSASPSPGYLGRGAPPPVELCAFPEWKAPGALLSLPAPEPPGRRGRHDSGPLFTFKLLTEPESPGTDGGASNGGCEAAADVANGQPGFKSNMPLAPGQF

Tests used:
Assay type in all cases: cell-based
α2A = α2A (Homo sapiens, UniProt P08913); experiment: FLIPR intracellular calcium assay, α2A; details: read-out: α2A potency (EC50), fluo-3 calcium, NA = not active
α2B = α2B (Homo sapiens, UniProt P18089); experiment: FLIPR intracellular calcium assay, α2B; details: read-out: α2B potency (EC50), fluo-3 calcium, NA = not active
α2C = α2C (Homo sapiens, UniProt P18825); experiment: FLIPR intracellular calcium assay, α2C; details: fluo-3 calcium, NA = not active
α1A = α1A (UniProt P35348); experiment: FLIPR intracellular calcium assay, α1A; details: read-out: α1A potency (EC50), fluo-3 calcium, NA = not active
α1B = α1B (UniProt P35368); experiment: FLIPR intracellular calcium assay, α1B; details: read-out: α1B potency (EC50), fluo-3 calcium, NA = not active

## C#CC(NC1=NCCO1)c1ccccc1 (centres unmarked)
α2A
  EC50: 0.04 nM
α2B
  EC50: 1.12 nM
α2C
  α2C potency (EC50): Potent (0.82)
α1A
  EC50: 0.58 nM
α1B
  EC50: 17.5 nM
